Reference: patent US11246873B2, “Directed differentiation of oligodendrocyte precursor cells to a myelinating cell fate” (The Scripps Research Institute, priority 2011, dated 2022)

Tested on: PLP induced EAE mice
Settings: various doses i.p. (FTY720 1, 0.1, 0.01 mg/kg; interferon-β 10,000, 3000, 1000 U per mouse)
Protocol: (A-E) SJL mice were immunized with proteolipid peptide (PLP) and pertussis toxin and monitored daily with scoring on the standard clinical EAE scale (0-5). Compounds were administered daily for the duration of the study in saline at 10 mg/kg via intra-peritoneal injection (0.1 ml), starting on the day of the appearance of clinical EAE symptoms (day 10). […] Mean clinical EAE score and standard error of mean (SEM) are shown for each study group.
FIG. 25. […] EAE was induced in mice using PLP and pertussis toxin. […] Prophylactic dosing is defined as administration of compound commenced on the day of PLP injection. Error bars indicate standard deviation of the mean within each group of 8 mice.
(A-F) EAE was induced in mice using PLP and pertussis toxin. […] Error bars indicate standard deviation of the mean within each group of 8 mice.
(A-F) EAE was induced in mice by injecting PLP in complete Freund's adjuvant (CFA) and pertussis toxin, and the animals were scored daily for clinical severity of disease on a scale of 0-5. […] Error bars indicate standard deviation of the mean within each group of 8-10 mice.
10 week old SJL mice were immunized with PLP emulsion and pertusis toxin to induce EAE. […] The mice were scored daily on a standard EAE scale of 0-5. […]

B1: interferon-β: immunomodulating drug approved for the treatment of MS (protein, UniProt P01574 22-187, looked up)
Interferon beta: MSYNLLGFLQRSSNFQCQKLLWQLNGRLEYCLKDRMNFDIPEEIKQLQQFQKEDAALTIYEMLQNIFAIFRQDSSSTGWNETIVENLLANVYHQINHLKTVLEEKLEKEDFTRGKLMSSLHLKRYYGRILHYLKAKEYSHCAWTIVRVEILRNFYFINRLTGYLRN
For B1, the “dose dependence of clinical EAE scores” value was “dose dependent activity”.
